Experimental data as given in ChEMBL document CHEMBL5143617 (Eur J Med Chem, 2022).

Protein sequences, listed by entry. Tags and fused reporters are not part of them. Lines headed by an entry give the natural chain unless they say otherwise; changes in a name come on top.
UniProt Q9Y233: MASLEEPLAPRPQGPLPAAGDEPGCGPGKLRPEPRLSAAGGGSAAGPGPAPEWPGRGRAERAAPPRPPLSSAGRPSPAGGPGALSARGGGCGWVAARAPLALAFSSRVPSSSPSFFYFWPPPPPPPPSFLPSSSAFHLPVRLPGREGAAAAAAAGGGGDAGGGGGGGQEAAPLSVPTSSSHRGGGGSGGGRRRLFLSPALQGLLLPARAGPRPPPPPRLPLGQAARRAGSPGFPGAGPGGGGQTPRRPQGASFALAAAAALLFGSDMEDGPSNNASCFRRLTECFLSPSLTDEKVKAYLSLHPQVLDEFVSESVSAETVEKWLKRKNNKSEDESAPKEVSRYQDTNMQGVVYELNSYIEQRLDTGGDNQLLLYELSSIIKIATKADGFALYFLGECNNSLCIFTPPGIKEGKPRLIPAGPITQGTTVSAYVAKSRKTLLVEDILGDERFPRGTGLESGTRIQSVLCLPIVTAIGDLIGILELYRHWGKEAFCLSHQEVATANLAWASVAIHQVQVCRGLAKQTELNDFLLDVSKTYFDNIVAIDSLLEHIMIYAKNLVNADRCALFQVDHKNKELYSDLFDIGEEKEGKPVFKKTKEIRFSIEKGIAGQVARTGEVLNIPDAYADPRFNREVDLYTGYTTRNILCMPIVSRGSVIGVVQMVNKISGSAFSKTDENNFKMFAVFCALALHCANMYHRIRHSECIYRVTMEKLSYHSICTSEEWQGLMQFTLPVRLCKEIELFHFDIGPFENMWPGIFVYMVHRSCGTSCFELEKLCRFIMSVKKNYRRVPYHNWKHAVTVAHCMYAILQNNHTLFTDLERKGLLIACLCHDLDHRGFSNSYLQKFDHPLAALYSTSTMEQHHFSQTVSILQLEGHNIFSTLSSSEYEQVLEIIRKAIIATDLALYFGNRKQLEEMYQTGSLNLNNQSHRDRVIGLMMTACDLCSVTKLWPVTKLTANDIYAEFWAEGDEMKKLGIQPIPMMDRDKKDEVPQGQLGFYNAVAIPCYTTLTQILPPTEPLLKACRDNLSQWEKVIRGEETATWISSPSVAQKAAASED
UniProt P50406, whole entry: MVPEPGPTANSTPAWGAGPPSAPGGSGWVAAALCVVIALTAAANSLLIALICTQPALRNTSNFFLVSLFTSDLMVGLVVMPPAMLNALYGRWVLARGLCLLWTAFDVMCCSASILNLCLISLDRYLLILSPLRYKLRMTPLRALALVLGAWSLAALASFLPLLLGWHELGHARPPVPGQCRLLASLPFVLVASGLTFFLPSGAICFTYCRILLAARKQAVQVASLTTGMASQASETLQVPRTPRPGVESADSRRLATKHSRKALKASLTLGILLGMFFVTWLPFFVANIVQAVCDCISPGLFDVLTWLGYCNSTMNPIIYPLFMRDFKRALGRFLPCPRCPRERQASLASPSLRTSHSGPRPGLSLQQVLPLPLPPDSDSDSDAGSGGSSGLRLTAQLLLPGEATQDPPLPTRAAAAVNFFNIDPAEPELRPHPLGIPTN

Experiments:
[1] = molecular target: cAMP and cAMP-inhibited cGMP 3',5'-cyclic phosphodiesterase 10A (Homo sapiens, UniProt Q9Y233); assay: Inhibition of PDE10A (unknown origin) at 10 uM preincubated for 20 mins followed by substrate addition and measured after 1 hr by PEDlight AMP detection reagent based luminescence assay relative to control; settings: time 80.0 min
[2] = molecular target: 5-hydroxytryptamine receptor 6 (Homo sapiens) (UniProt P50406); assay: Inhibition of 5-HT6 receptor (unknown origin); settings: concentration not given here

Row | Compound | inhibition [1] [%] | inhibition [2] [%]
1 | COc1cc2ncnc(N3CCC(CN4CCN(c5ccccc5O)CC4)C3)c2cc1OC (stereo not drawn) | 20 | –
2 | COc1cccc(N2CCN(CC3CCN(c4ncnc5cc(OC)c(OC)cc45)C3)CC2)c1 (stereo not drawn) | 27 | 5
